From PubChem
KCNH2 3.1 block = KCNH2 3.1 (human) potassium channel inhibition | actives 0.95% (n = 340,000) | activity change, % (tested at about 1.8 µM) | U2OS KCNH2 3.1, thallium flux FluxOr; active compounds read low | AID 720553;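 active = maximum activity change below -70%; inconclusive = maximum activity change from -70% to -50%; inactive = maximum activity change above -50%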;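 also: thallium influx rate constant from kinetic fluorescence after stimulation buffer; % is scaled to controls: 0 for no effect and ±100 for the full control effect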
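Measured as rate of thallium-driven FluxOr signal in transduced U2OS cells carrying the 3.1 channel, read kinetically for 2 min upon stimulation; values are rate constants scaled to DMSO control wells.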
Rango release inh = inhibition of RanGTP-driven Rango-importin beta dissociation. O95149+P62826. Biochemical FRET Rango-importin beta, RanGTP-induced dissociation. Potency, µM (doses to about 46.1 µM), inactives show top-dose activity change, negative = inhibition. actives 0.071% (n = 340,000). AID 540253; also: potency is read from the fitted curve at half-maximal effect; % of control where 0% means no effect; nearly all actives have a fitted effect of over 45% in size
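FRET read at 45 min, room temperature: inhibitors block the CFP/YFP signal rise when RanGTP (0.6 uM Ran, 2 mM GTP, 0.2 uM RCC1) frees Rango (0.1 uM) from importin beta (0.25 uM). Pre-read after 5 min compound exposure flags interference.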
Rango-impB inh = inhibitors of Rango-importin beta complex formation; Q14974; Rango CFP/YFP FRET sensor + importin beta, 45 min; Potency, µM (highest dose often 92.2 µM), inactives show at the top dose inhibition of complex formation; actives 0.031% (n = 340,000); AID 540263;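 also: potency is read from the fitted curve at half-maximal effect; 0% = DMSO wells and 100% = buffer wells lacking importin beta; nearly all actives have a fitted effect of over 15% in size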
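Inhibition scored from the CFP 486 nm/YFP 530 nm FRET ratio 45 min after adding 0.125 microM importin beta to 50 nM Rango biosensor preincubated 5 min with compound (room temperature, PBS with DTT, Tween-20, BSA). No-importin wells as positive control.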
Mm-Cpn inhibitor = blocks the Methanococcus maripaludis chaperonin Mm-Cpn | AID 504842 | actives 0.031% (n = 330,000) | purified Mm-Cpn ATPase, ADP Transcreener TR-FRET | Potency, µM (doses to about 76.9 µM), for inactives: at the top dose activity, negative = inhibition, hits mostly inhibitors; active = well fitted inhibition curve with a large enough effect; inconclusive = small, poorly fitted or top-dose-only effect; also: potency is read from the fitted curve at half-maximal effect; % is scaled to controls: 0 for no effect and ±100 for the full control effect; nearly all actives have a fitted effect of over 80% in size
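Quantitative HTS used 25 nM Mm-CPN and 10 uM ATP in magnesium/KCl Tris buffer, pH 7.4, with 1 mM DTT. Hydrolysis ran 30 min at 37°C; ADP was read by HTRF.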
CCT chaperon mod = cytosolic chaperonin activity modulation; purified chaperonin ATPase assay, HTRF ADP detection, 30 min; activity change, % (no concentration beside the values), hits read low; actives 0.3% (n = 360,000); in the data active = activity change below about -30%; also: % is scaled to controls: 0 for no effect and ±100 for the full control effect
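First, chaperonin was dispensed at 40 nM or 20 nM final depending on batch activity. Next, compounds were pinned at 76 uM and ATP added at 10 uM. After 30 min at 37 °C, ADP detection reagents ran 30 min at ambient temperature.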
hERG WT inh = KCNH2 (human, wildtype) channel inhibition | Q12809 | U2OS, BacMam KCNH2, thallium flux FluxOr; active compounds read low | activity change, % at 1.84 µM | actives 0.37% (n = 340,000);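 active = maximum activity change below -70%; inconclusive = maximum activity change between -70% and -50%; inactive = maximum activity change above -50%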; also: % is scaled to controls: 0 for no effect and ±100 for the full control effect
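U2OS cells transduced with wild-type KCNH2 virus are loaded with FluxOr dye for 45 min, and thallium flux is measured in kinetic reads before and after stimulation buffer. Rate constants are normalized to DMSO controls.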
Active calls of the source: *; ? = inconclusive; nt = no result. Rows were chosen to be rich in hits. Some 1.4% of all compounds tested hit in one or more screens of this group. Unless noted, calls follow the shape of the full dose curve.

| cpd | SMILES | KCNH2 3.1 block | Rango release inh | Rango-impB inh |
| --- | --- | --- | --- | --- |
| 1 | CCN(CC)CCN(Cc1cc2cc3c(cc2[nH]c1=O)OCO3)C(=S)NCCOC | 2 | -5% | -1% |
| 2 | COc1ccccc1N1CCN(Cc2nc(N)nc(Nc3ccc(C)c(Cl)c3)n2)CC1 | -106* | 1% | 0% |
| 3 | COC(=O)c1ccc(NCc2cc(O)ccc2O)cc1O | 9 | 8% | 18µM* |
| 4 | COC(=O)c1ccc(NCc2c(O)ccc(O)c2Br)cc1Cl | 0 | 2% | -3% |
| 5 | O=C(Cn1cnc2ccccc2c1=O)NCC(=O)N1CCN(Cc2ccc3c(c2)OCO3)CC1 | -2 | 3% | 1% |
| 6 | O=C(Cn1cnc2ccccc2c1=O)N1CCN(Cc2ccc3c(c2)OCO3)CC1 | 6 | 9% | 0% |
| 7 | CCNC(=O)C1CCCN(C(=O)c2ccccc2OC(F)(F)F)CC1 (centres undefined) | nt | nt | nt |
| 8 | Cc1cccc(CNc2ncnc3ccc(-c4ccc5c(ccn5C)c4)cc23)c1 | nt | nt | nt |
| 9 | O=C(CC1SC(=Nc2ccc(OC(F)F)cc2)N(CCN2CCOCC2)C1=O)Nc1ccccc1 (centres undefined) | -41 | 11% | -1% |
| 10 | O=C(CC1SC(=Nc2ccc(OC(F)F)cc2)N(CCN2CCOCC2)C1=O)Nc1ccc(F)cc1F (centres undefined) | -114* | -1% | -1% |
| 11 | Cc1ccc(OCCN2CCN(c3ncnc4sc(C)c(C)c34)CC2)cc1 | -79* | -17% | -1% |
| 12 | O=C(Nc1ccn(-c2ccccc2)n1)c1ccc(S(=O)(=O)N2CCCCCC2)cc1 | -84* | 23% | -3% |

| cpd | Mm-Cpn inhibitor | CCT chaperon mod | hERG WT inh |
| --- | --- | --- | --- |
| 1 | 1% | -1 | -8 |
| 2 | -4% | -34* | -7 |
| 3 | nt | -2 | 9 |
| 4 | nt | -2 | -6 |
| 5 | 0% | -1 | 5 |
| 6 | -23% | -54* | 4 |
| 7 | nt | -2 | nt |
| 8 | -3% | nt | nt |
| 9 | 1% | 2 | -20 |
| 10 | 1% | -5 | -101* |
| 11 | 0% | 1 | -3 |
| 12 | 0% | -1 | -29 |

Following part.
| cpd | SMILES | KCNH2 3.1 block | Rango release inh | Rango-impB inh |
| --- | --- | --- | --- | --- |
| 13 | O=C(Nc1ccccc1Cl)c1ccccc1Cl | 2 | 9% | -2% |
| 14 | NC(=S)Nc1cc(Cl)ccc1Cl | -5 | 10% | 0% |
| 15 | O=C(Nc1ccccc1Cl)c1ccc(Cl)cc1Cl | -72* | 7% | 1% |
| 16 | NC(=O)Nc1cc(Cl)ccc1Cl | -2 | 9% | 1% |
| 17 | O=c1c2ccccc2c(C=NCCCN2CCOCC2)c(O)n1Cc1ccc2c(c1)OCO2 | -13 | -9% | ? |
| 18 | O=C(CN1CCN(C(=O)C2CCN(C(=O)/C=C/c3ccccc3)CC2)CC1)Nc1ccc(F)cc1 | -99* | 2% | 1% |
| 19 | CCOc1ccc(NC(=O)CN2CCN(CC(=O)c3ccc(OCC)cc3)CC2)cc1 | -49 | -4% | 6% |
| 20 | O=C(CN1CCCCCC1)Nc1ccc(Oc2ccccc2)cc1 | -96* | 1% | -3% |
| 21 | CCOc1ccc(NC(=O)CN2CCN(CC(=O)Nc3ccc(F)cc3)CC2)cc1 | -89* | -7% | -1% |
| 22 | O=C(CCN1CCN(Cc2ccccc2)CC1)Nc1ccc(OCc2ccccc2)cc1 | -95* | 1% | -2% |
| 23 | O=C(CCN1CCN(CCO)CC1)Nc1ccc(OCc2ccccc2)cc1 | -3 | 6% | -4% |
| 24 | O=C(CN1CCCCC1)Nc1ccccc1 | -1 | -8% | -1% |

| cpd | Mm-Cpn inhibitor | CCT chaperon mod | hERG WT inh |
| --- | --- | --- | --- |
| 13 | 2% | 2 | 0 |
| 14 | -1% | -4 | 1 |
| 15 | 1% | -1 | -13 |
| 16 | 1% | -85* | 1 |
| 17 | 3% | -38* | 7 |
| 18 | nt | 0 | -39 |
| 19 | 0% | -3 | 18 |
| 20 | -3% | 2 | 8 |
| 21 | -4% | -7 | -92* |
| 22 | 0% | 0 | -39 |
| 23 | nt | 1 | 3 |
| 24 | 1% | -1 | 0 |

(cont.)
| cpd | SMILES | KCNH2 3.1 block | Rango release inh | Rango-impB inh |
| --- | --- | --- | --- | --- |
| 25 | Cc1cc(C)cc(C(=O)NCC(=O)OCC(=O)NCc2ccco2)c1 | 14 | 1% | 0% |
| 26 | CCCCN1C(=O)C(=O)N(CC(=O)Nc2cc(Cl)ccc2OC)C1=O | 25 | -1% | -1% |
| 27 | O=C(CN1CCN(CC(=O)Nc2ccc(OCc3ccccc3)cc2)CC1)Nc1ccc(F)cc1 | -94* | 4% | 4% |
| 28 | O=C(CN1CCN(c2nc(-c3ccc(F)cc3)cs2)CC1)Nc1ccc2c(c1)OCO2 | -124* | -2% | 0% |
| 29 | CC1CCN(CC(=O)Nc2ccc3c(c2)OCO3)CC1 | 5 | 1% | 3% |
| 30 | O=C(/C=C/c1ccc(F)cc1)NNC(=O)CCN1CCN(Cc2ccccc2)CC1 | -105* | 1% | -3% |
| 31 | CCOc1ccc(NC(=O)CN2CCN(CC(=O)Nc3ccc4c(c3)OCO4)CC2)cc1 | -106* | 2% | 0% |
| 32 | COc1cccc(/C=C/C(=O)NNC(=O)CCN2CCN(Cc3ccccc3)CC2)c1 | -31 | 9% | -1% |
| 33 | N#C/C(=C\c1ccc(-c2cccc([N+](=O)[O-])c2)o1)C(=O)Nc1nc(-c2cccs2)cs1 | -1 | 2% | ? |
| 34 | CC(C)N(C)c1ncnc2c1ncn2[C@H]1CN(C2CCCC2)C[C@@H](CO)O1 | nt | nt | nt |
| 35 | OC[C@@H]1CN(CCN2CCOCC2)C[C@H](n2cnc3c(N4CCOCC4)ncnc32)O1 | nt | nt | nt |
| 36 | CC1Cc2ccccc2N1C(=O)CN1C(=O)CN(C)C(=O)c2ccccc21 (centres undefined) | -9 | 8% | 0% |

| cpd | Mm-Cpn inhibitor | CCT chaperon mod | hERG WT inh |
| --- | --- | --- | --- |
| 25 | 1% | -3 | -15 |
| 26 | 0% | 0 | 0 |
| 27 | nt | -1 | -103* |
| 28 | -15% | -6 | -1 |
| 29 | 0% | 1 | -3 |
| 30 | -1% | 1 | 21 |
| 31 | 3% | 2 | -120* |
| 32 | 1% | 1 | 13 |
| 33 | 0% | -2 | 3 |
| 34 | nt | 2 | nt |
| 35 | nt | -1 | nt |
| 36 | 2% | -35* | -6 |

Whole records, looked up by structure. Order of values: KCNH2 3.1 block | Rango release inh | Rango-impB inh | Mm-Cpn inhibitor | CCT chaperon mod | hERG WT inh
`O=C(CN1CCN(c2nc(-c3ccc(F)cc3)cs2)CC1)Nc1ccc2c(c1)OCO2` in the list: -124* | -2% | 0% | -15% | -6 | -1
`O=C(/C=C/c1ccc(F)cc1)NNC(=O)CCN1CCN(Cc2ccccc2)CC1` in the list: -105* | 1% | -3% | -1% | 1 | 21
`OC[C@@H]1CN(CCN2CCOCC2)C[C@H](n2cnc3c(N4CCOCC4)ncnc32)O1` in the list: nt | nt | nt | nt | -1 | nt
`N#C/C(=C\c1ccc(-c2cccc([N+](=O)[O-])c2)o1)C(=O)Nc1nc(-c2cccs2)cs1` in the list: -1 | 2% | ? | 0% | -2 | 3
`CCCCN1C(=O)C(=O)N(CC(=O)Nc2cc(Cl)ccc2OC)C1=O` in the list: 25 | -1% | -1% | 0% | 0 | 0

New compounds follow:
| cpd | SMILES | KCNH2 3.1 block | Rango release inh | Rango-impB inh |
| --- | --- | --- | --- | --- |
| 37 | COc1ccccc1OCCN(C#N)c1nc(N(C)C)nc(N(C)C)n1 | -84* | 5% | 0% |
| 38 | CN(C)c1nc(N(C)C)nc(N(C#N)CCOc2ccccc2)n1 | 9 | -7% | -1% |
| 39 | COc1cc(OC)c(/C=N/N2CCN(c3ccccc3OC)CC2)c(OC)c1 | 17 | 3% | 6% |
| 40 | Cc1c(C)c(C)c(C(=O)C2CCN(c3ccc([N+](=O)[O-])cn3)CC2)c(C)c1C | -6 | -4% | 2% |
| 41 | O=C(CSc1nnc(SCc2ccccc2)s1)NNC(=S)Nc1ccccc1 | -1 | -23% | 3% |
| 42 | O=C(Cc1ccccc1)NNC(=S)Nc1ccccc1 | 12 | 6% | 3% |
| 43 | COCCSc1ccccc1C(=O)N1CCOCC1 | -86* | 10% | 0% |
| 44 | COCCSc1ccccc1C(=O)N1CCCC1 | 11 | -9% | -1% |
| 45 | NC(=O)C1CCN(c2nc(-c3ccc(C(F)(F)F)cc3)cs2)CC1 | nt | nt | nt |
| 46 | CC(C)(C)C(=O)OCc1nc(-c2ccc(C(F)(F)F)cc2)cs1 | -93* | -10% | -2% |
| 47 | FC(F)(F)c1cccc(-c2ccn3ncnc3n2)c1 | 3 | 2% | -3% |

| cpd | Mm-Cpn inhibitor | CCT chaperon mod | hERG WT inh |
| --- | --- | --- | --- |
| 37 | 2% | -15 | 1 |
| 38 | 2% | 1 | 1 |
| 39 | 1% | 0 | 21 |
| 40 | 0% | -1 | -1 |
| 41 | 2% | 0 | -85* |
| 42 | 0% | 0 | 10 |
| 43 | -2% | -1 | -4 |
| 44 | 0% | 1 | -9 |
| 45 | -21% | nt | nt |
| 46 | 0% | 1 | 12 |
| 47 | 2% | -56* | -2 |
